# Literature values, collected in US5888494A, “Film-forming compositions of antihyperalgesic opiates and method of treating hyperalgesic and pruritic conditions therewith” (priority 1997, dated 1999).
# Settings: intravenous administration; cited from earlier work
structure (smiles),measurement,value
CN1CC[C@]23c4c5ccc(O)c4O[C@H]2C(=O)CC[C@H]3[C@H]1C5 [hydromorphone],itch and itch-related reactions,"associated with prutitus, urticaria, other skin rashes, and wheal and flare over the vein being injected"
